# Laboratory results taken from ChEMBL document CHEMBL2429783, “Discovery of epigenetic regulator I-BET762: lead optimization to afford a clinical candidate inhibitor of the BET bromodomains” (J Med Chem, 2013).
# The chains behind the UniProt entries cited, without tags or fusion partners.
# UniProt Q15059, whole entry: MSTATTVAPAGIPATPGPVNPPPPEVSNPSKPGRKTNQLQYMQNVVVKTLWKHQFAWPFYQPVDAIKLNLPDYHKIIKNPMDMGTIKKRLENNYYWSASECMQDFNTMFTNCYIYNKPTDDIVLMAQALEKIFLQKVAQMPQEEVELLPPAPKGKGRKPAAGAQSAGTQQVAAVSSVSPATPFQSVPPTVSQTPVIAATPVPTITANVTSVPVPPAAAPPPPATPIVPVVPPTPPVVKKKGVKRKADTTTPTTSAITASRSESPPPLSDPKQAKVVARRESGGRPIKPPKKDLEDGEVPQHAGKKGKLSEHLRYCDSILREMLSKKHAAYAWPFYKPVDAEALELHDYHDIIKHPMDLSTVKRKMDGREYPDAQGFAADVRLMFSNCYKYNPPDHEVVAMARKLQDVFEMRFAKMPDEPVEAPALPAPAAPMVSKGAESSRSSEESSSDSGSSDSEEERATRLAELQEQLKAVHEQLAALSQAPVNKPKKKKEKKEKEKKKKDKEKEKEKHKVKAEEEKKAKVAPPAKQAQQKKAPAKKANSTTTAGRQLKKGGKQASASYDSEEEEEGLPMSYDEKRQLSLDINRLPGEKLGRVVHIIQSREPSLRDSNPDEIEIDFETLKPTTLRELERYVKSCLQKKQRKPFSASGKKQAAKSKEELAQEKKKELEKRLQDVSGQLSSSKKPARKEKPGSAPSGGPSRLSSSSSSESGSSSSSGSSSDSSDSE
# Target: Bromodomain-containing protein 3 (Homo sapiens, UniProt Q15059)
compound,measurement,value
Cc1nnc2n1-c1ccccc1C(c1ccccc1)=NC2NC(=O)OCc1ccccc1 (stereo unspecified),IC50,631 nM
